Data as given in paper PMC7058367 (Biochemical pharmacology, 2018).

Sequences of proteins named here, by UniProt entry; tags and fusion partners are left off. Residues count along the entry.
UniProt Q00961, 20-842, stated change not applied: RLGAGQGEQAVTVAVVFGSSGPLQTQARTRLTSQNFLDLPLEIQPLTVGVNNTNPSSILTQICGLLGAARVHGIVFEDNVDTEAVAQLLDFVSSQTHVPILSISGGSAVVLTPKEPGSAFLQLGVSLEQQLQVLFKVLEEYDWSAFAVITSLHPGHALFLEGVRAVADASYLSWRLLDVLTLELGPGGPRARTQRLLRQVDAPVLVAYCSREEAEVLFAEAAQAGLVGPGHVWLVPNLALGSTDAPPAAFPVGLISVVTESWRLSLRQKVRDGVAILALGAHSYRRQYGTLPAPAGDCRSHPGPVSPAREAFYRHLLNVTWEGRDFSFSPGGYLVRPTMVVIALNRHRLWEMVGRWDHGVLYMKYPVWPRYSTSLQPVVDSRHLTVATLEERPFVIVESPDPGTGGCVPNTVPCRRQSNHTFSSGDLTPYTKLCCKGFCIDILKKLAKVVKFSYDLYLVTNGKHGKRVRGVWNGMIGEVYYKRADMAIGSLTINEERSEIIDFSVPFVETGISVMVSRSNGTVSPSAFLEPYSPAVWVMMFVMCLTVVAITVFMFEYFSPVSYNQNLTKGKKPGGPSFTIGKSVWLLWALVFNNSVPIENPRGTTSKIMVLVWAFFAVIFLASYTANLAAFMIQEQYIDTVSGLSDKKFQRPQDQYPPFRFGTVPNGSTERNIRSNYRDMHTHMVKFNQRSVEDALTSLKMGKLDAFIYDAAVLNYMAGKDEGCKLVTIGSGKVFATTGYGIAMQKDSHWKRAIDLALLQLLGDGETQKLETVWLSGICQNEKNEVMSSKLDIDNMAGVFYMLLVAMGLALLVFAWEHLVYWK
UniProt Q00961, 20-1237: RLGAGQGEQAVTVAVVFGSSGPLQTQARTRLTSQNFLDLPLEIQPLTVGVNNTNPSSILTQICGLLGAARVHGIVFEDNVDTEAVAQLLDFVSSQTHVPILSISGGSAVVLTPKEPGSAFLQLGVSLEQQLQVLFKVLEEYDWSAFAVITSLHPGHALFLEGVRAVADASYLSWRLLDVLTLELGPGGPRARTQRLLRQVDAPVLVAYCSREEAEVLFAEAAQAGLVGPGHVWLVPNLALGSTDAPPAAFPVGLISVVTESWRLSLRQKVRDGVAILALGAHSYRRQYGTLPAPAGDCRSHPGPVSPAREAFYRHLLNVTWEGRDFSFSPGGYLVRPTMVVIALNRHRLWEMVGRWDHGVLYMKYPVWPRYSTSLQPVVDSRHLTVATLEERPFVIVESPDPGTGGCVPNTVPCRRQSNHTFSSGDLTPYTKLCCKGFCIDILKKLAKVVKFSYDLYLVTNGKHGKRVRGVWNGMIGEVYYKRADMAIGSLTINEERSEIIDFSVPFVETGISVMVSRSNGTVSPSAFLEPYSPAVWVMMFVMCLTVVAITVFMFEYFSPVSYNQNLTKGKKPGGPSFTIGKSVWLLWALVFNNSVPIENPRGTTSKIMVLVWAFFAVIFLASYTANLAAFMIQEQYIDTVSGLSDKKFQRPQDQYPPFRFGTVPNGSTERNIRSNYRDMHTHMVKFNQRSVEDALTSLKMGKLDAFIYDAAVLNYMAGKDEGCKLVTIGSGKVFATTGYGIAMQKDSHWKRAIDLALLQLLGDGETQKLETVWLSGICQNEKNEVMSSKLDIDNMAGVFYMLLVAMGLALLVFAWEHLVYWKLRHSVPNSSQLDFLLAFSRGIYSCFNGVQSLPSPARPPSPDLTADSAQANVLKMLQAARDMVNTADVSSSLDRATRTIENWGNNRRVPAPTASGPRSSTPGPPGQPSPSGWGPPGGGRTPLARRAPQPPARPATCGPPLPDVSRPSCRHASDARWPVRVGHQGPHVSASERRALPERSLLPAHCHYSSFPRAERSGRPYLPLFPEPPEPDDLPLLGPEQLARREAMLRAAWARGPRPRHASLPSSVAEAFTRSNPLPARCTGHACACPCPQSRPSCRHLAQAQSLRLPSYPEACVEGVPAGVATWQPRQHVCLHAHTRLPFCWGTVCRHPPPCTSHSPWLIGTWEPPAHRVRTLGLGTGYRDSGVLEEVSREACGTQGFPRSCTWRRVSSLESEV

Experiments:
[1] = target: GluN1/GluN2C^ΔCTD receptors (Rattus norvegicus, UniProt P35439+Q00961); experiment: Two-electrode voltage clamp of GluN2C CTD-deleted receptors; type: cell-based; conditions: 10 µM L-glutamate/10 µM glycine; GluN2C without CTD (Fig. 3C)
Procedure, shortened: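 Xenopus laevis oocytes were injected with GluN1a and GluN2 RNA at a 1:3 molar ratio. The CTD was removed by a stop codon at GluN1 838K or GluN2C 855K, and 10-20-fold more RNA than wild type was injected. Oocytes were kept in ND-96 at 17 °C for 1-5 days. TEVC was run at -60 mV in Ba2+ buffer (pH 7.4). […] Full-length receptors were run alternately on the same day and oocyte batch. Values are mean ± s.e.m.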

GluN1/GluN2C receptors = GluN1/GluN2C receptors (Rattus norvegicus, UniProt P35439+Q00961); type: cell-based; conditions: 10 µM L-glutamate/10 µM glycine; GluN2C with CTD (Fig. 3C)
Procedure, shortened: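 Oocytes expressed wild-type GluN1a/GluN2 receptors from 15-30 ng RNA (1:3 molar) and were held in ND-96 at 17 °C for 1-5 days. For Ca2+ chelation, 5 mM EGTA (50 nL) was injected 1-2 h before recording, with uninjected and water-injected oocytes as controls. TEVC was run at -60 mV in 116 mM NaCl, 2 mM KCl, 0.3 mM BaCl2, 5 mM HEPES (pH 7.4). […] Values are mean ± s.e.m.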

5-Pregnen-3β-ol-20-onesulphate [PS] showed an IC50 [1] of 7.8 ± 1.2 µM and an IC50 (GluN1/GluN2C receptors) of 82.4 ± 16.3 µM.
